# Measured affinities in a library of Ab-14 heavy chain variants

Source: Engelhart et al. 2022 (doi:10.1038/s41597-022-01779-4), MIT Lincoln Laboratory and A-Alpha Bio; data file from the FLAb repository.

Target peptide (SARS-CoV-2 spike, HR2 region): PDVDLGDISGINAS

The variants keep the light chain, the linker and the frameworks of Ab-14 (scFv order VH, the linker GGGGSGGGGSGGGGS, VL).
VH: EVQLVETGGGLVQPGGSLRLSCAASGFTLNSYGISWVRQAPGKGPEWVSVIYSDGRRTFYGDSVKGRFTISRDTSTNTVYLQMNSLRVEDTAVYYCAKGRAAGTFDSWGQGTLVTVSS
VL: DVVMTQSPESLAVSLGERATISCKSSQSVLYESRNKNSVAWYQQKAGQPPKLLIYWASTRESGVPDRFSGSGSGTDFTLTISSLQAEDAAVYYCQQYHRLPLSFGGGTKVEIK

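Variants in AAYL49 differ from the parent at up to three CDR positions; double and triple changes were sampled at random. In AlphaSeq, yeast of one mating type display the scFv and yeast of the other type display the target. Pairs that bind mate more often; barcode pairs of the diploids are counted by sequencing. A regression on co-assayed BCL2-family reference pairs converts the normalised counts of each replicate to an apparent Kd. The assay was run in three technical replicates.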

Each variant is given by its three heavy chain CDRs, as the data file delimits them; those of the parent are GFTLNSYGIS, VIYSDGRRTFYGDSVK, GRAAGTFDS.
Values are log10 of the apparent Kd in nM; lower means stronger binding.
Averages over replicates are reported, and they cover detected replicates only.
A pair that was not seen in that replicate is written "ND"; this usually means weak binding, but a binder can also be missed.
Background: pairings of library AAYL49 with three empty control strains gave a value in 15% of cases (median 4.06, 5th percentile 2.83). Values in that range, when seen in few replicates, are hard to tell from nonspecific mating. The control count says in how many pairings with the empty strains this scFv gave a signal, with their mean in brackets.
In this assay the parent's reference entry averaged 0.65; its copy inside this library read 4.11 (one replicate of three).

| CDR-H1 | CDR-H2 | CDR-H3 | replicates, log10 nM | mean log10 Kd (nM) | empty controls |
|---|---|---|---|---|---|
| GFYLNSYGIS | VIYSDGRRTFYDPSVK | GRAAGTFDS | 1.60 1.72 1.73 | 1.68 | 4 of 9 (4.11) |
| GFTRNSYGAS | VIYSDGRRRFYGDSVK | GRAAGTFDS | ND ND ND | ND | 1 of 9 (3.71) |
| GFTFNSYGKS | QIYSDGRRTFYGDSVK | GRAAGTFDS | 4.03 ND 4.61 | 4.32 | 2 of 9 (4.13) |
| GFTLNSYGIS | VIYSFARRTFYGDYVK | GRAAGTFDS | ND ND ND | ND | 0 of 9 |
| GFTMNSYGIS | VIYSDGRRTFYGDSVK | GREAGTFDS | -0.13 0.35 0.53 | 0.25 | 0 of 9 |
| GFTLQSYGIS | VIYSDGRRTFYGMSVK | GRAAGTFDS | 3.79 2.56 4.12 | 3.49 | 0 of 9 |
| GFTLNSEGIS | VIYSMGRRTSYGDSVK | GRAAGTFDS | ND ND 4.55 | 4.55 | 2 of 9 (4.53) |
| GWTSNSYGIS | VIYSDGRRTFYGDSVK | GRAQGTFDS | ND 4.29 ND | 4.29 | 2 of 9 (4.13) |
| GSTLNSYGIS | VIDSDGRRTFYGDSVK | GRAARTFDS | 4.10 3.92 5.12 | 4.38 | 3 of 9 (3.86) |
| GFTLNSYGIS | IIYSDGRRTFYGMSVK | GRANGTFDS | ND ND ND | ND | 0 of 9 |
| GFTLNSYGIA | VIYSDGRRTFYGPSVK | GRAAGTFES | ND ND ND | ND | 0 of 9 |
| GFTLNSYGIS | VIYCDGRRTFYKDSVK | GRANGTFDS | ND ND ND | ND | 1 of 9 (3.89) |
| GFTLNWYGIS | IIYSDGRRTFYGDSVK | GRAAGTFDG | ND ND ND | ND | 0 of 9 |
| GFTLNSYGIS | VINSDGRRTFYKDSVS | GRAAGTFDS | 5.22 ND ND | 5.22 | 0 of 9 |
| GFTLNSYVIS | VIYSDGRTTFYGWSVK | GRAAGTFDS | 4.56 ND 5.77 | 5.17 | 2 of 9 (5.29) |
| GFTLNSYGIS | VIWSDGRRTFYEGSVK | GRAAGTFDS | 5.39 ND ND | 5.39 | 1 of 9 (4.26) |
| MFTLNSYGIS | VIYSDGRDTFYFDSVK | GRAAGTFDS | ND 4.74 4.64 | 4.69 | 5 of 9 (4.49) |
| GFTLYSYGTS | VILSDGRRTFYGDSVK | GRAAGTFDS | ND ND ND | ND | 3 of 9 (4.67) |
| GATLNSYGIS | VIYSLGRRTRYGDSVK | GRAAGTFDS | ND ND ND | ND | 1 of 9 (3.80) |
| GFALNSYGIS | VIYSDGRRTFYGDPVK | GRAAGTFDQ | 0.92 1.13 1.10 | 1.05 | 3 of 9 (4.56) |
| GFTLNSYWIV | VIYSDGRYTFYGDSVK | GRAAGTFDS | 6.23 3.75 ND | 4.99 | 2 of 9 (3.88) |
| GFTLNSYGES | VIYSDGRRTFYGDSVK | PRAAGTFYS | ND ND ND | ND | 5 of 9 (3.89) |
| GFTLNSYGIS | VIYSTGQRTFYGDSVK | GRAAGTFYS | ND 2.90 ND | 2.90 | 0 of 9 |
| GFTLNSYGIS | VIYSDGRETFYGKSCK | GRAAGTFDS | ND ND ND | ND | 1 of 9 (2.95) |
| GFTENSKGIS | VIYSDGRRTFYGDSVK | GRAAGHFDS | 2.20 2.10 2.39 | 2.23 | 5 of 9 (4.59) |
| GFTLNSYIIS | VIYSDGNRTFYGDSVK | GRAAGTFDS | ND ND ND | ND | 0 of 9 |
| GFTLNSYGIS | VIYYDGMRTFYGDSVK | GRAAGTFDS | 2.22 1.95 2.29 | 2.15 | 6 of 9 (4.45) |
| WFTLNSYRIS | DIYSDGRRTFYGDSVK | GRAAGTFDS | ND ND ND | ND | 2 of 9 (4.13) |
| GPTLNSHGIS | VIYSDGRRTFYGDSVK | GRAAGTFAS | ND ND ND | ND | 0 of 9 |
| GFTLNSYGIS | VIVSDGRRTFYGDSVK | GRAIGTFDS | ND 3.23 ND | 3.23 | 0 of 9 |
| GFTLNSYGIS | VIQPWGRRTFYGDSVK | GRAAGTFDS | ND ND ND | ND | 1 of 9 (4.12) |
| HFTLNRYGIS | VIYSDGRRTDYGDSVK | GRAAGTFDS | ND 2.68 ND | 2.68 | 1 of 9 (4.08) |
| GFTLNSYGIQ | VIYSDGRRTFYGDSVK | GRAAGYFDS | ND ND ND | ND | 0 of 9 |
| GFTLNSYGIS | VIYSDGRGQFYGDSVK | GRAAGTFPS | 3.74 3.75 ND | 3.75 | 2 of 9 (3.90) |
| GFTLNSTGIS | VIYSDGRRTFYGDSVK | GRAAMTFMS | 5.61 4.88 4.38 | 4.96 | 6 of 9 (3.65) |
| GFTLNSYGIS | VIYSDGRNGFYGDSVG | GRAAGTFDS | ND ND ND | ND | 0 of 9 |
| GFTLNSYGIS | VIYKDGRRTFYGDSVK | GRAAGTFIG | ND ND ND | ND | 0 of 9 |
| GFTLNSYGIS | VIYSDGMRTFYGDSVK | GRAAGKFPS | 1.25 1.16 1.18 | 1.20 | 1 of 9 (4.50) |
| GFPLNKYGIS | VIYSDGERTFYGDSVK | GRAAGTFDS | 0.24 0.48 0.51 | 0.41 | 1 of 9 (3.75) |
| GFTLNSYRIS | VIYSMGRHTFYGDSVK | GRAAGTFDS | ND 4.32 ND | 4.32 | 5 of 9 (4.51) |

The first 3 variants above that were never detected:

| CDR-H1 | CDR-H2 | CDR-H3 | replicates, log10 nM | mean log10 Kd (nM) | empty controls |
|---|---|---|---|---|---|
| GFTRNSYGAS | VIYSDGRRRFYGDSVK | GRAAGTFDS | ND ND ND | ND | 1 of 9 (3.71) |
| GFTLNSYGIS | VIYSFARRTFYGDYVK | GRAAGTFDS | ND ND ND | ND | 0 of 9 |
| GFTLNSYGIS | IIYSDGRRTFYGMSVK | GRANGTFDS | ND ND ND | ND | 0 of 9 |